# PubChem BioAssay (NCI)
# Some structures show a salt or complex split into parts, the way the source records it.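 Five concentrations, 48 hours, 96-well plates. GI50 marks 50% less growth. TGI marks complete inhibition of growth.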
# Legend:
# Assay in all cases: NCI-60 cell line screen, 48 h
# OVCAR-3 ovarian = test system: OVCAR-3 ovarian
# CCRF-CEM leukemia = test system: CCRF-CEM leukemia
# HCT-116 colon = test system: HCT-116 colon
# HCC-2998 colon = test system: HCC-2998 colon
# DLD-1 colon = test system: DLD-1 colon
# MALME-3M melanoma = test system: MALME-3M melanoma
# UO-31 renal = test system: UO-31 renal
# SK-MEL-28 melanoma = test system: SK-MEL-28 melanoma
# M14 melanoma = test system: M14 melanoma
# NCI-H23 lung = test system: NCI-H23 lung
# MCF7 breast = test system: MCF7 breast
# DMS 114 small cell lung = test system: DMS 114 small cell lung
# MOLT-4 leukemia = test system: MOLT-4 leukemia
# 786-0 renal = test system: 786-0 renal
# HS 578T breast = test system: HS 578T breast
# NCI-H226 lung = test system: NCI-H226 lung
# KM20L2 colon = test system: KM20L2 colon
# A549 NSCLC = test system: A549 NSCLC
# NCI-H460 lung = test system: NCI-H460 lung
# T-47D breast = test system: T-47D breast
# SNB-78 CNS = test system: SNB-78 CNS
# SW-620 colon = test system: SW-620 colon
# HL-60(TB) leukemia = test system: HL-60(TB) leukemia
# OVCAR-4 ovarian = test system: OVCAR-4 ovarian
# SK-MEL-5 melanoma = test system: SK-MEL-5 melanoma
# IGROV1 ovarian = test system: IGROV1 ovarian
# UACC-257 melanoma = test system: UACC-257 melanoma
# DU-145 prostate = test system: DU-145 prostate
# SNB-19 CNS = test system: SNB-19 CNS
# NCI/ADR-RES ovarian = test system: NCI/ADR-RES ovarian
# HT29 colon = test system: HT29 colon
# SF-539 CNS = test system: SF-539 CNS
# OVCAR-5 ovarian = test system: OVCAR-5 ovarian
# A498 renal = test system: A498 renal
# HOP-18 NSCLC = test system: HOP-18 NSCLC
# SR leukemia = test system: SR leukemia
# RXF 393 renal = test system: RXF 393 renal
# UACC-62 melanoma = test system: UACC-62 melanoma
# ACHN renal = test system: ACHN renal
# PC-3 prostate = test system: PC-3 prostate
# NCI-H522 lung = test system: NCI-H522 lung
# DMS 273 small cell lung = test system: DMS 273 small cell lung
# LOX IMVI melanoma = test system: LOX IMVI melanoma
# KM12 colon = test system: KM12 colon
# NCI-H322M lung = test system: NCI-H322M lung
# SK-MEL-2 melanoma = test system: SK-MEL-2 melanoma
# K-562 leukemia = test system: K-562 leukemia
# MDA-MB-231 breast = test system: MDA-MB-231 breast
# HOP-92 NSCLC = test system: HOP-92 NSCLC
# SF-295 CNS = test system: SF-295 CNS
smiles,measurement,setting,value
[Au+].[Au+].c1ccc([PH+](c2ccccc2)c2ccccc2)cc1.c1ccc([PH+](c2ccccc2)c2ccccc2)cc1.n1n[n-]c(-c2nnn[n-]2)n1,GI50,OVCAR-3 ovarian,6.79 µM
same,TGI,OVCAR-3 ovarian,17.6 µM
same,GI50,CCRF-CEM leukemia,1.67 µM
same,TGI,CCRF-CEM leukemia,13.4 µM
same,GI50,HCT-116 colon,9.26 µM
same,TGI,HCT-116 colon,30.8 µM
same,GI50,HCC-2998 colon,11 µM
same,TGI,HCC-2998 colon,24.2 µM
same,GI50,DLD-1 colon,3.57 µM
same,TGI,DLD-1 colon,15.5 µM
same,GI50,MALME-3M melanoma,5.57 µM
same,TGI,MALME-3M melanoma,14.9 µM
same,GI50,UO-31 renal,8.04 µM
same,TGI,UO-31 renal,20.6 µM
same,GI50,SK-MEL-28 melanoma,3.11 µM
same,TGI,SK-MEL-28 melanoma,13.5 µM
same,GI50,M14 melanoma,3.84 µM
same,TGI,M14 melanoma,15.5 µM
same,GI50,NCI-H23 lung,6.2 µM
same,TGI,NCI-H23 lung,21.9 µM
same,GI50,MCF7 breast,7.33 µM
same,TGI,MCF7 breast,33.7 µM
same,GI50,DMS 114 small cell lung,3.8 µM
same,TGI,DMS 114 small cell lung,66.8 µM
same,GI50,MOLT-4 leukemia,4.49 µM
same,TGI,MOLT-4 leukemia,80.7 µM
same,GI50,786-0 renal,2.55 µM
same,TGI,786-0 renal,10 µM
same,GI50,HS 578T breast,15.2 µM
same,TGI,HS 578T breast,> 100 µM
same,GI50,NCI-H226 lung,7.79 µM
same,TGI,NCI-H226 lung,18 µM
same,GI50,KM20L2 colon,10.5 µM
same,TGI,KM20L2 colon,30.7 µM
same,GI50,A549 NSCLC,10.2 µM
same,TGI,A549 NSCLC,36.4 µM
same,GI50,NCI-H460 lung,11 µM
same,TGI,NCI-H460 lung,33.5 µM
same,GI50,T-47D breast,6.35 µM
same,TGI,T-47D breast,26.9 µM
same,GI50,SNB-78 CNS,3.74 µM
same,TGI,SNB-78 CNS,53.2 µM
same,GI50,SW-620 colon,3.57 µM
same,TGI,SW-620 colon,21.2 µM
same,GI50,HL-60(TB) leukemia,2.62 µM
same,TGI,HL-60(TB) leukemia,11.2 µM
same,GI50,OVCAR-4 ovarian,7.8 µM
same,TGI,OVCAR-4 ovarian,23.4 µM
same,GI50,SK-MEL-5 melanoma,5.41 µM
same,TGI,SK-MEL-5 melanoma,18.1 µM
same,GI50,IGROV1 ovarian,7.14 µM
same,TGI,IGROV1 ovarian,20.3 µM
same,GI50,UACC-257 melanoma,4.06 µM
same,TGI,UACC-257 melanoma,18 µM
same,GI50,DU-145 prostate,11.8 µM
same,TGI,DU-145 prostate,25 µM
same,GI50,SNB-19 CNS,3.72 µM
same,TGI,SNB-19 CNS,9.45 µM
same,GI50,NCI/ADR-RES ovarian,21.3 µM
same,TGI,NCI/ADR-RES ovarian,56 µM
same,GI50,HT29 colon,8.14 µM
same,TGI,HT29 colon,22.5 µM
same,GI50,SF-539 CNS,7.16 µM
same,TGI,SF-539 CNS,20.7 µM
same,GI50,OVCAR-5 ovarian,15.6 µM
same,TGI,OVCAR-5 ovarian,29.5 µM
same,GI50,A498 renal,15.2 µM
same,TGI,A498 renal,28.5 µM
same,GI50,HOP-18 NSCLC,14.9 µM
same,TGI,HOP-18 NSCLC,28.5 µM
same,GI50,SR leukemia,2.19 µM
same,TGI,SR leukemia,8.86 µM
same,GI50,RXF 393 renal,3.18 µM
same,TGI,RXF 393 renal,10.2 µM
same,GI50,UACC-62 melanoma,4.57 µM
same,TGI,UACC-62 melanoma,16.9 µM
same,GI50,ACHN renal,13.6 µM
same,TGI,ACHN renal,26.5 µM
same,GI50,PC-3 prostate,11.8 µM
same,TGI,PC-3 prostate,24.4 µM
same,GI50,NCI-H522 lung,1.45 µM
same,TGI,NCI-H522 lung,2.97 µM
same,GI50,DMS 273 small cell lung,6.66 µM
same,TGI,DMS 273 small cell lung,29.3 µM
same,GI50,LOX IMVI melanoma,4.19 µM
same,TGI,LOX IMVI melanoma,14.4 µM
same,GI50,KM12 colon,9.61 µM
same,TGI,KM12 colon,29 µM
same,GI50,NCI-H322M lung,12.9 µM
same,TGI,NCI-H322M lung,25.9 µM
same,GI50,SK-MEL-2 melanoma,2.4 µM
same,TGI,SK-MEL-2 melanoma,7.95 µM
same,GI50,K-562 leukemia,2.58 µM
same,TGI,K-562 leukemia,34.7 µM
same,GI50,MDA-MB-231 breast,15.8 µM
same,TGI,MDA-MB-231 breast,35.3 µM
same,GI50,HOP-92 NSCLC,9.79 µM
same,TGI,HOP-92 NSCLC,21.7 µM
same,GI50,SF-295 CNS,6.66 µM
same,TGI,SF-295 CNS,16.6 µM
